Literature values in article PMC6832551, “An Antiviral Peptide from Alopecosa nagpag Spider Targets NS2B–NS3 Protease of Flaviviruses” (Toxins, 2019).
Structures can show the parent of a compound that is named as a salt.

Test system: recombinant ZIKV NS2B–NS3 protease
Details: interacting with H51 and S135 in the ZIKV NS2B–NS3 protease; cited from earlier work
Text: Despite their differences in pathogeneses, DENV and ZIKV are representative, emerging mosquito-borne flaviviruses with similar replication cycles which infect millions of people annually. The non-structural proteins of flaviviruses are important for virus replication and assembly. It has been established that NS2B–NS3 forms the viral protease and NS3 alone serves as the dsRNA helicase. Recently, the NS2B–NS3 protease became an attractive antiviral target, and many of its inhibitors have been reported as potential antivirals. Protease inhibitors are ubiquito ...

CC(C)C[C@H]1C(=O)N2CCC[C@H]2[C@]2(O)O[C@](NC(=O)[C@@H]3C=C4c5cccc6[nH]c(Br)c(c56)C[C@H]4N(C)C3)(C(C)C)C(=O)N12 [bromocriptine, Bromocriptine mesylate]
ZIKV protease activity (in words): confirmed to inhibit ZIKV protease activity
